## Measured affinities in a library of Ab-95 light chain variants

Source: Engelhart et al. 2022 (doi:10.1038/s41597-022-01779-4), MIT Lincoln Laboratory and A-Alpha Bio; data file from the FLAb repository.

All variants were tested on one target, the spike HR2 peptide PDVDLGDISGINAS (SARS-CoV-2).

Ab-95 is the parent antibody, in scFv form: VH, then three GGGGS repeats, then VL. The heavy chain is unchanged in all variants.
VH: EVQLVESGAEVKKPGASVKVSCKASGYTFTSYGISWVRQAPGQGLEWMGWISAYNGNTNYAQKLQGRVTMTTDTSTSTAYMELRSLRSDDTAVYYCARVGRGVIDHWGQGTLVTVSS
VL: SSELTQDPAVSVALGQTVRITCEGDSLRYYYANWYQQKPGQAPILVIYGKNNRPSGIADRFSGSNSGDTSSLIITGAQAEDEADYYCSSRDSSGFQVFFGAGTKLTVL

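The library (AAYL52) carries one to three amino acid substitutions per variant, with no insertions or deletions. AlphaSeq pools MATa yeast showing the antibodies with MATalpha yeast showing the peptide. The frequency of each diploid, read from paired DNA barcodes, reflects how well the two displayed proteins bind. Each replicate has its own calibration line, from reference interactions of the BCL2 family. The assay was run in three technical replicates.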

Substitutions are numbered in sequence along the VL above, starting at 1 (not Kabat).
The read-out is the apparent dissociation constant on a log10 scale (nM): the lower, the stronger.
Where no diploid with the target was found in that replicate, the entry reads "ND": below detection, most likely a poor binder, though not proof of it.
Empty control strains, which show no peptide, gave a signal in 28% of pairings with library AAYL52; the median was 3.91 and 95% of these signals were weaker than 2.90. No background was subtracted. For each scFv, signals with the empty controls are counted beside the result, with their mean in brackets.
For reference, the parent read 2.31 as the reference entry and 2.25 as a member of this library.

changes	log10 Kd (nM) by replicate	empty controls
A32S S93M F95C	2.42 / 2.30 / 3.07	0/9
K50S S89R G94I	ND / 4.98 / ND	2/9 (3.93)
S92F S93W F98H	2.21 / 2.18 / 1.82	3/9 (4.21)
S88W D91M F98Y	3.56 / 3.67 / ND	2/9 (4.58)
K50D R53T V97A	3.05 / 2.71 / 2.92	3/9 (3.77)
Y29P S55Y S92R	3.44 / 2.93 / 2.61	1/9 (5.07)
R53T S88K S89G	4.91 / 5.83 / ND	4/9 (4.04)
N33Q	4.16 / 3.33 / 3.81	0/9
E23M L27M G94F	2.76 / 2.65 / 2.72	4/9 (3.55)
Y30E A32N R53F	ND / 4.78 / ND	2/9 (4.66)
L27T D91Y	3.82 / 3.95 / ND	4/9 (3.81)
D25P L27C	3.47 / 4.01 / 4.43	3/9 (3.69)
Y29D N52E S55W	1.59 / 1.83 / 1.38	2/9 (3.89)
L27E Y30V G94F	2.18 / 4.20 / ND	2/9 (3.29)
G49Y K50V P54L	5.23 / ND / ND	4/9 (4.24)
L27G N52D R53S	ND / ND / ND	4/9 (3.36)
S26W L27A Q96L	ND / 4.04 / 4.46	3/9 (4.51)
R90V D91K	2.58 / 2.74 / ND	0/9
S26Y Y29Q A32T	3.05 / 2.31 / 2.34	5/9 (3.42)
A32L N51H S93K	ND / 5.80 / ND	3/9 (4.50)
N33R Q96M V97T	2.35 / 2.72 / 2.76	2/9 (4.16)
D25N P54Y S92A	2.60 / 2.81 / 2.60	2/9 (4.13)
R28F A32S K50W	ND / 4.04 / 3.81	0/9
D25Q P54L	2.82 / 2.60 / 2.34	2/9 (3.86)
Y29F A32V S93R	ND / ND / ND	1/9 (3.46)
P54A S93P G94V	3.78 / ND / 3.49	1/9 (3.46)
Y30W S89N	4.00 / ND / 3.13	2/9 (3.29)
N52V S88M S92N	2.17 / 1.95 / 1.57	3/9 (4.33)
N33H N51T S93Y	ND / 4.77 / 4.75	5/9 (4.16)
S26I A32S N52S	ND / 3.68 / ND	1/9 (3.22)
G24T S26T D91M	3.73 / 5.56 / 4.10	3/9 (4.00)
R28S N51Y N52T	2.86 / 2.69 / 2.52	4/9 (4.04)
D25Y N51Q S88C	ND / ND / ND	2/9 (3.89)
N51H N52D D91N	3.86 / 3.89 / ND	4/9 (4.44)
Y31W K50G	2.92 / 2.58 / 2.78	3/9 (4.62)
R28V N33R G94K	ND / ND / ND	2/9 (4.00)
S26Q N33M R90F	3.70 / ND / ND	2/9 (4.60)
Y31C V97S F98P	4.13 / 3.75 / ND	1/9 (2.50)
N52S F95E Q96Y	3.54 / 4.24 / 2.95	1/9 (3.34)
Y30G S89N Q96N	1.01 / 1.11 / 0.62	4/9 (4.46)
Y31K G49V S55R	ND / ND / ND	4/9 (4.73)
G49S G94W	3.84 / 4.14 / ND	2/9 (3.80)
A32E S89K S93R	ND / ND / ND	4/9 (3.79)
N33Q R53F S88N	5.57 / ND / 4.30	0/9
G24L N33I	2.94 / 3.16 / 2.97	4/9 (4.48)
G24W R28A P54W	4.52 / ND / 4.40	1/9 (2.71)
D25I S92P G94C	3.44 / 5.64 / 2.27	1/9 (4.09)
S89G D91H G94K	ND / ND / ND	1/9 (4.01)
K50R D91M V97D	4.47 / ND / ND	0/9

A selection of 5 entries from above:

changes	log10 Kd (nM) by replicate	empty controls
K50D R53T V97A	3.05 / 2.71 / 2.92	3/9 (3.77)
S26Q N33M R90F	3.70 / ND / ND	2/9 (4.60)
A32S S93M F95C	2.42 / 2.30 / 3.07	0/9
G49S G94W	3.84 / 4.14 / ND	2/9 (3.80)
R28V N33R G94K	ND / ND / ND	2/9 (4.00)